PubChem BioAssay AID2744 (NMMLSC, 2010)
Only a part is listed here, and it is no random draw. Calls of active or inactive are those of the source.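 How the source made its calls: active means fitted half-maximal concentration for changing reporter fluorescence at or below a set limit; inactive means the rest.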

Chains of the proteins cited; added tags and fusions are not shown. Lines headed by an entry give the natural chain unless they say otherwise; changes in a name come on top.
UniProt P08679: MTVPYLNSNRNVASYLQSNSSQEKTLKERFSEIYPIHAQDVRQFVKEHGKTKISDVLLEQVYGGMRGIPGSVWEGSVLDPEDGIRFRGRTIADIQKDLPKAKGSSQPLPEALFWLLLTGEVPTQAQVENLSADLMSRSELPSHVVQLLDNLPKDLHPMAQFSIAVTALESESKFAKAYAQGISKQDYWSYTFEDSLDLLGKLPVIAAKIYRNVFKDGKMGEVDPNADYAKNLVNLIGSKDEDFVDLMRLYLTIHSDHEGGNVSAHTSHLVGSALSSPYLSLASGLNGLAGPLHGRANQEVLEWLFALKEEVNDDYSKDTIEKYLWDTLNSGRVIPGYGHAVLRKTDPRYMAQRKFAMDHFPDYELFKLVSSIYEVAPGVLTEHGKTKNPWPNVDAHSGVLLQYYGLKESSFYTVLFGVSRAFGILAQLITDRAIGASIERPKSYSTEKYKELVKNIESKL

Target: Citrate synthase, peroxisomal (Saccharomyces cerevisiae (strain ATCC 204508 / S288c)) (UniProt P08679)
Experiment: CIT2-GFP expression modulators in yeast, dose response, flow cytometry, MLPCN hits (AID 2744)
Conditions: S. cerevisiae CIT2-GFP strain, 3 h, at 33 µM (top of the series)

With `C[N+]1=C2C=CC=CC=C2SC12C([N+](=O)[O-])=CC([N+](=O)[O-])=C[C-]2[N+](=O)[O-]` (stereo unspecified) the “GFP fluorescence, higher = induction” value was “inactive”.
